Assay results reported in PMC5813187, “Enhanced Permeability and Binding Activity of Isobutylene‐Grafted Peptides” (Chembiochem, 2017).

Chains of the proteins cited; added tags and fusions are not shown.
UniProt P30874, whole entry, species assumed: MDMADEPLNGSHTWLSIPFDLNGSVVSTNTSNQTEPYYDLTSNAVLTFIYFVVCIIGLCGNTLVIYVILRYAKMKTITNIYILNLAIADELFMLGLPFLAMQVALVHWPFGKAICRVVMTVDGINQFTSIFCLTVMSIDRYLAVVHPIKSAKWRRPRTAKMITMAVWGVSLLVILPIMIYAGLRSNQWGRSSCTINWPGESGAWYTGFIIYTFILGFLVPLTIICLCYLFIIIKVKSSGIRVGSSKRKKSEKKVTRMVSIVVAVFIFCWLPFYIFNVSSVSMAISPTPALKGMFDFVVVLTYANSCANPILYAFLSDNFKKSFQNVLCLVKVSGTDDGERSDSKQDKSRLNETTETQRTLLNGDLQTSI

Molecular target: somatostatin receptor type 2 (SSTR2) (Homo sapiens, UniProt P30874)
Experiment: Tryptophan fluorescence spectroscopy, binding to SSTR2
Conditions: 1 µM SSTR2, peptide 0.1 to 7 µM, 25 mM Tris, 150 mM NaCl, pH 7.5, 25 °C, excitation 280 nm, emission peak shift 328 to 338 nm

somatostatin [native somatostatin]
minimum concentration required to achieve saturation of SSTR2: at least 5.5 μM
